High-throughput results (PubChem)
PglD inh – C. jejuni PglD acetyltransferase inhibitors, primary screen, biochemical, DTNB colorimetric, single point; purified PglD enzyme, DTNB colorimetric CoA detection; hit rate 0.098% among 360,000; inhibition, % at 12.5 µM; in the data active means inhibition above about 16%, passing the limit was not always enough
DDE Tn7 FP inh – inhibitors of Tn7 peptide binding to fibrin DD(E), primary screen, biochemical, fluorescence polarization, human fibrin, Tn7 probe; Fibrinogen beta chain (Homo sapiens), P02675; FP displacement of FITC-Tn7 peptide from fibrin DD(E); 0% = median of compound wells per plate; inhibition, % at 8.3 µM; hit rate 0.13% among 370,000;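 active means inhibition above the mean of compounds falling within the control limits plus 3 SD of them, cut at about 14% in these data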;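 further: 0% = plate median of compound wells and 100% = 10 µM Aha-Tn7 peptide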
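Assay system: Fibrin-DD(E) protein isolated from polymerized human fibrin clots; read-out basis: percent inhibition; medium: Tris/NaCl/CaCl2 buffer, pH 7.8; signal: FP measurement; incubation: 10 min plus 3 h, room temperature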
DDE Tn6 FP inh – inhibitors of Tn6 peptide binding to fibrin DD(E), primary screen, biochemical, fluorescence polarization, human fibrin, Tn6 probe. Fibrin DD(E) TRITC-Tn6 fluorescence polarization displacement. inhibition, % at 8.3 µM. hit rate 0.21% among 370,000. Fibrinogen beta chain (Homo sapiens), P02675;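 active means inhibition above a per-campaign cutoff: mean of compounds within control limits plus 3 SD, cut at about 15% in these data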;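 further: 0% = median of all compound wells on the plate and 100% = blocking peptide control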
Yeast UUG start – modulators of start codon recognition fidelity in yeast | S. cerevisiae UUG-firefly luciferase reporter, luminescence/redox ratio | activity score, % at 18.7 µM | 350,000 tested, 0.13% active;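 active = replicate mean at a twofold rise or more, about +100% in these data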;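 also: firefly luciferase made from a UUG start codon reports start codon fidelity; reporter light over untreated wells divided by growth signal over untreated wells; some hits fall short of that in this replicate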
Tn6 DDE ctr – counter-screen hit for Tn6 peptide-fibrin DD(E) binding disruption; TRITC-Tn6 fluorescence polarization displacement; 0% = median of compound wells, not DMSO; hit rate 2% among 680; inhibition, % at 8.3 µM; shares compounds with DDE Tn6 FP inh; AID 720621;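 active means inhibition above the mean of test compounds lying between the control limits plus 3 SD of those, cut at about 14% in these data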;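 further: 0% = median of compound wells and 100% = wells with Aha-Tn7 blocking peptide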
Tn6 DDE conf – inhibitors of Tn6 peptide binding to fibrin DD(E), confirmation, biochemical, fluorescence polarization, human fibrin, Tn6 probe; shares compounds with DDE Tn6 FP inh; FP displacement of TRITC-Tn6 peptide from DD(E); 0% = per-plate median of test wells; inhibition, % at 8.3 µM; hit rate 10% among 680; AID 720631, 2013;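 active means inhibition above the mean of compounds lying within the control limits plus 3 SD, cut at about 16% in these data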;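 further: 100% = high control wells holding a competing inhibitor peptide at 10 µM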
An asterisk follows results filed as active; / = not tested or not shown. A selection: hits, their analogues and other compounds. The true share with any hit is near 0.45%.

| no. | smiles | PglD inh | DDE Tn7 FP inh | DDE Tn6 FP inh |
| --- | --- | --- | --- | --- |
| 1 | COc1ccc(OCC(=O)Nc2c3c(nn2C(C)(C)C)CS(=O)(=O)C3)cc1 | -2 | 1 | 5 |
| 2 | CC(C)(C)n1nc2c(c1NC(=O)COc1ccc(F)cc1)CS(=O)(=O)C2 | 2 | 9 | 16* |
| 3 | CCC(C)[C@H](NC(=O)NCc1ccc(Cl)cc1)C(=O)OC (stereo not given in full) | 2 | 4 | 17* |
| 4 | CS(=O)(=O)Nc1ccc2c(c1)[C@@H]1C[C@@H](CC(=O)N3CCOCC3)O[C@H](CO)[C@@H]1O2 | 6 | / | / |
| 5 | Cc1ccc(Cl)cc1NC(=O)COC(=O)Cn1cnc2c1c(=O)n(C)c(=O)n2C | 0 | 1 | 17* |
| 6 | Cn1c(=O)c2c(ncn2CC(=O)OCC(=O)Nc2cc(Cl)ccc2C#N)n(C)c1=O | -1 | 4 | 4 |
| 7 | COc1ccc(NC(=O)Cn2c(=O)cnc3ccccc32)cc1S(=O)(=O)N1CCCCC1 | / | -3 | 27* |
| 8 | Cc1ccc(NC(=O)Cn2c(=O)cnc3ccccc32)cc1S(=O)(=O)N1CCCCC1 | -3 | 2 | -3 |
| 9 | Cc1ccc(NC(=O)COC(=O)c2ccc3c(c2)OCCO3)cc1S(=O)(=O)N1CCOCC1 | / | -7 | 1 |
| 10 | Cc1ccc(NC(=O)COC(=O)c2ccc(NC(=O)CC#N)cc2)cc1S(=O)(=O)N1CCOCC1 | 1 | 2 | 20* |

| no. | Yeast UUG start | Tn6 DDE ctr | Tn6 DDE conf |
| --- | --- | --- | --- |
| 1 | -3 | / | / |
| 2 | -17 | -9 | -11 |
| 3 | 16 | -3 | -8 |
| 4 | -15 | / | / |
| 5 | -16 | 10 | 5 |
| 6 | 8 | / | / |
| 7 | / | 4 | 3 |
| 8 | 9 | / | / |
| 9 | / | / | / |
| 10 | -16 | -2 | -7 |

Following part.
| no. | smiles | PglD inh | DDE Tn7 FP inh | DDE Tn6 FP inh |
| --- | --- | --- | --- | --- |
| 11 | C[C@@H]1CN([C@@H](C)CO)C(=O)c2cc(NS(=O)(=O)c3ccccc3)ccc2O[C@@H](C)CCCCO[C@@H]1CN(C)C(=O)Nc1ccc2c(c1)OCO2 | -1 | / | / |
| 12 | C=CCn1c(CC#N)nnc1N1CCOCC1 | / | 5 | 16* |
| 13 | C=CCN1C(c2ccccc2)=CS/C1=C(/C#N)c1nnc(N2CCOCC2)n1-c1ccccc1 | / | 7 | 7 |
| 14 | CN1C(=O)[C@H]2[C@@H](c3ccc(C(F)(F)F)cc3)N[C@]3(CCCN(CC4CCCCC4)C3=O)[C@H]2C1=O | 0 | 1 | 16* |
| 15 | CCCN1[C@@H]2c3ccc(C4=CCCC4)c(=O)n3C[C@@H]2[C@@H](CO)[C@@H]1C(=O)NCC | 1 | / | / |
| 16 | COc1ccc(Cl)cc1NC(=O)COC(=O)CCNC(C)=O | 3 | 6 | 17* |
| 17 | COc1ccc(Cl)cc1NC(=O)COC(=O)C1CC1 | 2 | 13 | -10 |
| 18 | C[C@@H]1CN([C@@H](C)CO)C(=O)c2cc(NS(=O)(=O)c3cccs3)ccc2O[C@@H](C)CCCCO[C@@H]1CN(C)C(=O)CCC(F)(F)F | 0 | / | / |
| 19 | COc1ccc(NS(=O)(=O)c2ccc3nc(COc4ccc5ccccc5c4)[nH]c3c2)cc1 | 2 | 4 | 54* |
| 20 | C[C@@H]1CN([C@@H](C)CO)C(=O)Cc2cc(NS(C)(=O)=O)ccc2O[C@@H]1CN(C)C(=O)NC1CCCCC1 | 4 | / | / |

| no. | Yeast UUG start | Tn6 DDE ctr | Tn6 DDE conf |
| --- | --- | --- | --- |
| 11 | 18 | / | / |
| 12 | / | 3 | 1 |
| 13 | / | / | / |
| 14 | -8 | 4 | 3 |
| 15 | 20 | / | / |
| 16 | -14 | 9 | 5 |
| 17 | -5 | / | / |
| 18 | 10 | / | / |
| 19 | -29 | -1 | -10 |
| 20 | -14 | / | / |

Further compounds.
| no. | smiles | PglD inh | DDE Tn7 FP inh | DDE Tn6 FP inh |
| --- | --- | --- | --- | --- |
| 21 | N#C/C(=C\C1=C(N2CCOCC2)C(=C\c2ccc(Cl)cc2)/CC1)C(=O)Nc1ccccc1F | / | 2 | -3 |
| 22 | N#C/C(=C/C1=C(N2CCOCC2)C(=C/c2ccc(Cl)cc2Cl)/CC1)C(=O)Nc1ccccc1F | / | 4 | 156* |
| 23 | COc1ccc(Nc2c(-c3ccc(F)cc3)nc3nc(C)cc(C)n23)cc1 | / | 8 | 17* |
| 24 | COc1cccc(CN(C)CC(=O)NC(=O)NCc2ccco2)c1 | -1 | -5 | 18* |
| 25 | O=C(Nc1ccncc1)c1cc(C2CCCCN2C(=O)CCc2ccccc2)on1 (stereo not given) | 1 | -3 | 15* |
| 26 | CC(C)NC(=O)N(C)C[C@@H]1OCCCC[C@H](C)Oc2ccc(NC(=O)Nc3ccc(C(F)(F)F)cc3)cc2C(=O)N([C@H](C)CO)C[C@@H]1C | -3 | / | / |
| 27 | CC1(OC(=O)c2ccco2)C(=O)C=C2C=C(C3CC3)OC=C2C1=O (stereo not given) | -8 | -2 | 28* |
| 28 | CC1(OC(=O)c2cccs2)C(=O)C=C2C=C(C3CC3)OC=C2C1=O (stereo not given) | -1 | 2 | 7 |
| 29 | C[C@H]1CN([C@@H](C)CO)C(=O)Cc2cc(NS(=O)(=O)c3ccc(Cl)cc3)ccc2O[C@H]1CN(C)C(=O)Nc1ccccc1 | 1 | / | / |
| 30 | COc1ccc(NCc2nnc(SCC(=O)NCc3ccco3)n2-c2ccccc2OC)cc1 | 0 | -7 | 17* |

| no. | Yeast UUG start | Tn6 DDE ctr | Tn6 DDE conf |
| --- | --- | --- | --- |
| 21 | / | / | / |
| 22 | / | 0 | 11 |
| 23 | / | -1 | -7 |
| 24 | 0 | -3 | -2 |
| 25 | -12 | 4 | -1 |
| 26 | 4 | / | / |
| 27 | -7 | 5 | 18* |
| 28 | -17 | / | / |
| 29 | 10 | / | / |
| 30 | -19 | -3 | -4 |

Structures from the list above that contain a furan ring, fused or not (3):
| no. | smiles | PglD inh | DDE Tn7 FP inh | DDE Tn6 FP inh |
| --- | --- | --- | --- | --- |
| 24 | COc1cccc(CN(C)CC(=O)NC(=O)NCc2ccco2)c1 | -1 | -5 | 18* |
| 27 | CC1(OC(=O)c2ccco2)C(=O)C=C2C=C(C3CC3)OC=C2C1=O (stereo not given) | -8 | -2 | 28* |
| 30 | COc1ccc(NCc2nnc(SCC(=O)NCc3ccco3)n2-c2ccccc2OC)cc1 | 0 | -7 | 17* |

| no. | Yeast UUG start | Tn6 DDE ctr | Tn6 DDE conf |
| --- | --- | --- | --- |
| 24 | 0 | -3 | -2 |
| 27 | -7 | 5 | 18* |
| 30 | -19 | -3 | -4 |

Further results follow:
| no. | smiles | PglD inh | DDE Tn7 FP inh | DDE Tn6 FP inh |
| --- | --- | --- | --- | --- |
| 31 | Cc1ccc(-n2c(CNc3ccc(F)cc3)nnc2SCC(=O)NCc2ccco2)cc1 | -1 | 4 | 0 |
| 32 | COc1ccc(CCC(=O)Nc2nc3c(s2)CN(C)CC3)cc1OC | 0 | 1 | 83* |
| 33 | COc1ccc(CCC(=O)Nc2nccs2)cc1OC | -6 | -3 | -3 |
| 34 | CC(C)c1ccc(N2C(=O)/C(=C/N(C)C)SC2=S)cc1 | / | 5 | 43* |
| 35 | NS(=O)(=O)c1ccc(NS(=O)(=O)c2ccc(NC(=O)c3ccc(-c4ccccc4)cc3)cc2)cc1 | / | 5 | 32* |
| 36 | N#CCCCSc1nnc(Cc2ccc3c(c2)OCO3)o1 | 1 | -5 | 18* |
| 37 | COc1cccc(NC(=O)CN2C(=O)NC3(CCCCCC3)C2=O)c1 | 2 | 5 | 15* |
| 38 | COc1cccc(NC(=O)CN(C)C(=O)CN2C(=O)NC3(CCCC3)C2=O)c1 | 1 | 5 | -8 |
| 39 | Cc1ccc(CSc2ncn(-c3ccccc3)n2)cc1 | 4 | 1 | 16* |
| 40 | CC1C=NC(S(=O)(=O)N2CC[C@@H]3[C@H]2c2cc(-c4ccccc4)ccc2N(C)[C@H]3CO)=N1 (stereo not given in full) | -2 | / | / |
| 41 | CCCCNC(=O)CCn1nc(-c2ccccc2)ccc1=O | -2 | 10 | 4 |
| 42 | CCCCN(C)CCCNC(=O)CCn1nc(-c2ccccc2)ccc1=O | / | 8 | 16* |
| 43 | Cc1ccc(S(=O)(=O)Nc2ccc3c(c2)CC(=O)N([C@H](C)CO)C[C@@H](C)[C@@H](CN(C)S(=O)(=O)c2cn(C)cn2)O3)cc1 | -2 | / | / |

| no. | Yeast UUG start | Tn6 DDE ctr | Tn6 DDE conf |
| --- | --- | --- | --- |
| 31 | 0 | / | / |
| 32 | 0 | 0 | -3 |
| 33 | -9 | / | / |
| 34 | / | -7 | 4 |
| 35 | / | 0 | 17* |
| 36 | -13 | 4 | -5 |
| 37 | -8 | 5 | -1 |
| 38 | -18 | / | / |
| 39 | 3 | 4 | -2 |
| 40 | 9 | / | / |
| 41 | -2 | / | / |
| 42 | / | 0 | 2 |
| 43 | -1 | / | / |
